Literature values in patent US20100286233A1, “PERIPHERAL AND NEURAL INFLAMMATORY CROSSTALK” (University of Rochester, priority 2006, published 2010).

What was measured:
Conditions in all cases: cited from earlier work
[1] = target: δ-receptors (Homo sapiens, UniProt P41143)
[2] = target: κ-receptors (Homo sapiens, UniProt P41145)
[3] = target: μ-receptors (Homo sapiens, UniProt P35372)

Molecule | affinity for δ-receptors [1] | affinity for κ-receptors [2] | affinity for μ-receptors [3]
CC(C)[C@H](NC(=O)[C@H](CCC(=O)O)NC(=O)[C@H](Cc1ccccc1)NC(=O)[C@@H](C)NC(=O)[C@@H](N)Cc1ccc(O)cc1)C(=O)N[C@H](C(=O)NCC(=O)O)C(C)C [deltorphin, Tyr-D-Met-Phe-His-Leu-Met-Asp-NH2] | highly selective |  | 
Nociceptin/orphanin FQ: endogenous ligand for the ORL1-receptor, processed from pro-nociceptin/orphanin FQ | little affinity | little affinity | 
YGGFLRRQFKVVT [dynorphin B] |  |  | significant affinity
dynorphin A: opioid fragment of pro-dynorphin, SEQ ID NO: 135 |  |  | significant affinity
